Data: patent publication US20220193043A1 (CIPLA LIMITED, priority 2019, published 2022)

Legend:
[1] = rat plasma, 3 mg/kg PO
Experimental: Bioanalysis was performed using a fit-for-purpose LC-MS/MS method for the quantification of tenofovir in rat plasma samples. The calibration curve (CC) for the method consisted of nine non-zero calibration standards along with a double blank and zero standard samples. Study samples were analyzed along with three sets of quality control samples (18 QC samples; low, medium and high QC samples).
(§1) Plasma pharmacokinetic parameters were calculated using the non-compartmental analysis tool of Phoenix software (Version 6.3) and were determined from individual animals in each group. The peak plasma concentration (C), time to achieve peak plasma concentration (Tmax), the area under the plasma concentration-time curve (AUC0-t and AUCinf), AUC Extra (%), elimination half-life (T1/2), clearance (CL), volume of distribution Vd (L/kg) and Mean residence time (MRT) were calculated from intravenous group. The peak plasma concentration (C), time to achieve peak plasma concentration (T), AUC0-t and AUCinf, AUC Extra (%), Mean residence time (MRT) and absolute oral bioavailability (F) were calculated from the oral group.

[2] = rat plasma, tizanidine form 3 mg/kg, resveratrol 44 mg/kg, piperine 2 mg/kg where co-administered
Experimental: as §1, with “Bioanalysis was performed using a fit-for-purpose LC-MS/MS method for the quantification of tenofovir in rat plasma samples. The calibration curve (CC) for the method consisted of nine non-zero calibration standards along with a double blank and zero standard samples. Study samples were analyzed along with three sets of quality control samples (18 QC samples; low, medium and high QC samples). Plasma” for “Plasma”, “(Cmax),” for “(C),”, “(Tmax),” for “(T),”

## Tizanidine hydrochloride [Tizanidine HCl]
[1]
  CLF_Obs(PO): 462 ± 83.5 mL/min/kg
[2]
  CLF_Obs(PO): 462 ± 83.5 mL/min/kg

Read-outs that look alike come from different tables or passages of the source.
